Test system: isolated rabbit thoracic aorta preparations
Assay: Vessel relaxation in isolated rabbit thoracic aorta rings precontracted with noradrenaline
Conditions: for Max. Relaxation: @ 30 μM; for EC50: aortic rings contracted with noradrenaline 1 μM, functional endothelium, concentration producing 50% of the maximum relaxation

Row | Compound | Max. Relaxation [%] | EC50 [µM]
1 | O=[N+]([O-])O[C@H]1C[C@H](O)C[C@H]1O[N+](=O)[O-] | 78 | 4.7
2 | O=[N+]([O-])O[C@H]1C[C@@H](O)C[C@H]1O[N+](=O)[O-] | 69 | 4.4
